Assay [1] concerns the target Muscarinic acetylcholine receptor M1 (Rattus norvegicus, UniProt P08482). As to the kind of experiment: Binding affinity for rat cortex muscarinic acetylcholine receptor M1 using [3H]pirenzepine.
For assay [2], the target named is Muscarinic acetylcholine receptor M2 (Rattus norvegicus, UniProt P10980). As to the kind of experiment: Binding affinity for rat heart muscarinic acetylcholine receptor M2 using [3H]quinuclidinyl benzilate.
The target in assay [3] is Muscarinic acetylcholine receptor M3 (Rattus norvegicus, UniProt P08483). Briefly: Binding affinity for rat salivary gland muscarinic acetylcholine receptor M3 using [3H]N-methylscopolamine.

In general, Ki refers to a measure of affinity in units of concentration, obtained from inhibition or displacement. Lower therefore signals higher affinity.

In the case of `O=C(O[C@H]1CN2CCC1CC2)C1CCc2ccccc2N1c1ccccc1` (stereo partly drawn), the Ki in assay [1] was found to be 9.4 nM; in assay [2] it was 140 nM; in assay [3], 26 nM.

Source of the values: ChEMBL document CHEMBL1140447, “Synthesis and antimuscarinic properties of quinuclidin-3-yl 1,2,3,4-tetrahydroisoquinoline-2-carboxylate derivatives as novel muscarinic receptor antagonists” (J Med Chem, 2005).
